The list shows a part of the results, in another mix than the full data. Activity calls are given as the source filed them.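 The calls were made as follows: active = compounds whose signal lies at least 3.5 SD above the mean of all wells on their plate; inactive = the rest.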
assay: small molecules increasing insulinoma cell replication – ATP luminescence, uHTS, primary screen (AID 2380); conditions: MIN6 cells proliferation, ATPlite luminescence, 48 h; at 10 µM; stronger effect = higher value; 100% = growth in 10% serum; cells starved in 0.2% serum;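 also: 0% = DMSO-treated cells in low-serum medium and 100% = 10% serum control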

Compound | proliferation
Nc1cccc([As](=O)(O)c2ccccc2)c1 | inactive: -3.98%
NS(=O)(=O)c1cccc(NC(=O)COC(=O)C(O)(c2ccccc2)c2ccccc2)c1 | inactive: 7.06%
O=P1(Nc2ccc(Br)cn2)COc2ccccc2OC1 | inactive: -1.21%
O=[As](O)(c1cccs1)c1cccs1 | inactive: -4.23%
Cc1ccc(OCC(=O)OC2CN3CCC2CC3)cc1 (stereo unspecified) | inactive: -2.21%
CCC1=CC2Cc3nc4ccc(Cl)cc4c(N)c3C(C1)C2 (stereo unspecified) | inactive: -4.02%
O=P1(Nc2ccccn2)COc2ccccc2OC1 | inactive: -3.93%
CCOP(=O)(NC(=NC(C)c1ccccc1)NC(C)c1ccccc1)OCC (stereo unspecified) | inactive: -6.01%
CN(CCCl)Cc1cc(Cl)c(NC2=NCCN2)c(Cl)c1 | inactive: -6.8%
CCOP(=O)(Nc1ccc(C)cn1)OCC | inactive: -5.72%
Clc1n[nH]nc1-c1nn[nH][15n]1 | inactive: -3.22%
CC(C)(C)C(=O)NC(Sc1ncccn1)C(Cl)(Cl)Cl (stereo unspecified) | inactive: -2.36%
COc1ccccc1CNC(=O)COC(=O)C(O)(c1ccccc1)c1ccccc1 | inactive: 1.7%
CN(C(=O)Cc1ccc(Cl)c(Cl)c1)[C@@H]1CCCC[C@H]1N1CCCC1 | inactive: -4.25%
CC(C)/C=N\N=C(\N)N[N+](=O)[O-] | inactive: -2.63%
O=[As](O)(c1ccccc1Br)c1ccccc1Br | inactive: 0.9%
CC1(CBr)Cn2c(nc3ccccc3c2=O)S1 (stereo unspecified) | inactive: 0.09%
COP1(=S)c2c(C)nn(CCC#N)c2N=C(c2ccc(F)cc2)N1C (stereo unspecified) | inactive: -1.08%
O=C(COc1ccccc1)OC1CN2CCC1CC2 (stereo unspecified) | inactive: 2.31%
O=C(Nc1ccncc1[N+](=O)[O-])c1ccc([N+](=O)[O-])cc1[N+](=O)[O-] | inactive: 1.09%
O=C(OC1CN2CCC1CC2)c1cccc([N+](=O)[O-])c1 (stereo unspecified) | inactive: -3.09%
CCOC(=O)c1ccc(NC(=O)C(C)(CCl)SC)cc1 (stereo unspecified) | inactive: -1.48%
CCC(C)N(CC(C)C)C(=S)SC(NC(C)=O)C(Cl)(Cl)Cl (stereo unspecified) | inactive: -5.51%

Compound | proliferation
CCOC(=O)Nc1ccc([As](=O)(O)O)c(O)c1 | inactive: 1.08%
CCCCOc1ccc(C(=O)NCC2(N3CCCCC3)CCCCC2)cc1OC | inactive: -1.61%
Cc1cc(SC(NC(=O)c2ccccc2)C(Cl)(Cl)Cl)nc(C(C)C)n1 (stereo unspecified) | inactive: -2.22%
CCOC(=O)Nc1cccc([As](=O)(O)O)c1 | inactive: 0.98%
Cc1cc(SC(NC=O)C(Cl)(Cl)Cl)ncn1 (stereo unspecified) | inactive: -2.94%
O=P(Nc1ccccn1)(c1cccc2ccccc12)c1cccc2ccccc12 | inactive: -1.72%
C[As](=O)(O)c1cccc(C(=O)O)c1 | inactive: -1.01%
O=[As](O)(c1ccc(O)cc1)c1ccccc1O | inactive: 0.68%
COc1cc(C(=O)NCC2(N3CCOCC3)CCCCC2)ccc1OCC(C)C | inactive: -2.95%
Cc1ccc(OP(=O)(Nc2ccc([N+](=O)[O-])cn2)Oc2ccc(C)cc2)cc1 | inactive: -2.22%
Cc1ccc2nc3c(c(C)c2c1)CC(C(Cl)Cl)S3 (stereo unspecified) | inactive: -4.42%
ClCCSc1nnc(-c2cccnc2)o1 | inactive: -1.12%
CC(C)c1ccc(OP(=O)(Nc2ccccn2)Oc2ccccc2F)cc1 (stereo unspecified) | inactive: 1.84%
O=C(OC1CN2CCC1CC2)c1cccc2[nH]cnc12 (stereo unspecified) | inactive: 0.44%
CCN(CC)C(=S)SC(NC=O)C(Cl)(Cl)Cl (stereo unspecified) | inactive: -4.22%
CC(C)NC(=O)NP(=O)(Oc1ccccc1)Oc1ccccc1 | inactive: -1.74%
O=[N+]([O-])c1cc([N+](=O)[O-])c(-c2ccn[nH]2)s1 | inactive: -5.68%
Cc1c2c(nc3ccccc13)SC(C(Cl)Cl)C2 (stereo unspecified) | inactive: 2.95%
O=C(OC1CN2CCC1CC2)C12CC3CC(CC(C3)C1)C2 (stereo unspecified) | inactive: 0%
Cc1cc(=O)[nH]c(N[N+](=O)[O-])n1 | inactive: 0.08%
COc1ccc2nc(NP(=O)(c3ccccc3)c3ccccc3)sc2c1 | inactive: -2.42%
COc1cc(I)ccc1[As](=O)(O)O | inactive: -4.37%
COc1ccc(N/C(=N/P(=O)(N2CCOCC2)N2CCOCC2)N2CCOCC2)cc1 | inactive: -2.31%

— PubChem BioAssay AID2380 (Sanford-Burnham Center for Chemical Genomics, 2010)
